Values quoted from earlier work as cited in PMC6976901 (Toxicology Reports, 2020).
Like-named read-outs stand apart in the source and are kept apart here.

Test system: liver (hepatotoxicity)
Details: Hazard Evaluation Support System Integrated Platform, cited from earlier work

## O=S(=O)(c1ccc(O)cc1)c1ccc(O)cc1 [bisphenol S]
Table 2
  hepatic NOEL: 200 mg/kg/day

## Nc1cccc(S(=O)(=O)O)c1 [3-aminobenzenesulfonic acid]
Table 1
  hepatic NOEL: 1000 mg/kg/day
